Measurements taken from PubChem BioAssay AID1347165 (National Center for Advancing Translational Sciences (NCATS), 2019).
Where “and” joins values, the source holds several entries; their conditions need not be identical. Identical values can stand only once. The entries are a selection whose mix differs from that of the whole data set. Some of these compounds have results that are not shown, active ones among them. Results filed as inconclusive are left out. Calls of active or inactive are those of the source. Calls come from the whole dose curve; as a rule, active = well fitted inhibition curve with a large enough effect; inconclusive = small, poorly fitted or top-dose-only effect; inactive = no such curve, though single readings can be large or run the other way.
Note: 0% is about no effect; nearly all actives have a fitted effect of over 70% in size.

Sequences of proteins named here, by UniProt entry; tags and fusion partners are left off.
UniProt Q9UGL1, whole entry: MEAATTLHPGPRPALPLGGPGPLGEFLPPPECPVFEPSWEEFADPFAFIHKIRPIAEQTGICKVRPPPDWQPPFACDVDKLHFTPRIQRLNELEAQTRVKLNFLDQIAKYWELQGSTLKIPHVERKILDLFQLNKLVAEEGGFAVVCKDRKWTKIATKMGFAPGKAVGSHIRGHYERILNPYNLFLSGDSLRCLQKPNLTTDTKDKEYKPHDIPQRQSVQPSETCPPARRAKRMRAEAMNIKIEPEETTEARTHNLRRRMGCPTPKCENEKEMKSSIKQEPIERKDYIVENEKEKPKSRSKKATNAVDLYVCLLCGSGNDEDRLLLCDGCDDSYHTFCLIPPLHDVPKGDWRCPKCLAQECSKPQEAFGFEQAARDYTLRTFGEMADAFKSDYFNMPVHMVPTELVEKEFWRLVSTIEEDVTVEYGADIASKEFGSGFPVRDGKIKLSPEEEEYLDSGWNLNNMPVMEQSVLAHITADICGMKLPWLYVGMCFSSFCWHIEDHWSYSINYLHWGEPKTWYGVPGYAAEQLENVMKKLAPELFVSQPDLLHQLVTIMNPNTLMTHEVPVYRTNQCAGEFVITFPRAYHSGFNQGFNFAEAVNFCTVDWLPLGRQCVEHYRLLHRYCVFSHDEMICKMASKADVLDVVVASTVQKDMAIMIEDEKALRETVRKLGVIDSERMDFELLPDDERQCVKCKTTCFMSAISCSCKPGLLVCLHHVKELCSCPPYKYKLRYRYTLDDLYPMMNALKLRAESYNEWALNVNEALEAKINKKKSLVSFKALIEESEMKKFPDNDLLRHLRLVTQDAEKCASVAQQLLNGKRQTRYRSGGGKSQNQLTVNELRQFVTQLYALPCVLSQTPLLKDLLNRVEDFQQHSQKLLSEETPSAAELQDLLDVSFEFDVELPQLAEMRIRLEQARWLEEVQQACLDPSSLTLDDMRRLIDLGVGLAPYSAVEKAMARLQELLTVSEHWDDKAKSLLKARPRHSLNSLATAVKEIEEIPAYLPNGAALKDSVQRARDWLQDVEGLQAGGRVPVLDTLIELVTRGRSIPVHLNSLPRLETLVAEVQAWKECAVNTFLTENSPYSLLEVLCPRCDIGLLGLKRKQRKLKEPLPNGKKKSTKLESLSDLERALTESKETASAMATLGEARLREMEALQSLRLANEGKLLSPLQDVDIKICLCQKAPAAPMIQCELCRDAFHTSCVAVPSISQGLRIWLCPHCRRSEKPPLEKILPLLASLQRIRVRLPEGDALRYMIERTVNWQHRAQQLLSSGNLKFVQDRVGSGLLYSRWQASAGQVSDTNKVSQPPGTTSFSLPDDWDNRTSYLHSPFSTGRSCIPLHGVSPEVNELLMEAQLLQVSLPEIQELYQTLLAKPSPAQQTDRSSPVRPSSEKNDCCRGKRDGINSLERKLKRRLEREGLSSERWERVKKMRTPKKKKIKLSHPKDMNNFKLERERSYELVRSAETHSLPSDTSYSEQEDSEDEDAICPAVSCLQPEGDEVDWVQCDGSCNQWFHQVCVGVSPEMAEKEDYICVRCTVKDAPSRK

What follows are molecules tested against Lysine-specific demethylase 5B (Homo sapiens) (UniProt Q9UGL1) (assay: Primary screen for KDM5B Histone Demethylases FDH-coupled qHTS). Conditions: FDH-coupled NADH fluorescence (FDH is formaldehyde dehydrogenase); at 57.7 µM (top of the series).
Text: Assay Submitter (PI): Qin Yan, Ph.D. (Yale University) and Xiaodong Cheng, Ph.D. (MD Anderson) This project was funded as part of the NCI NEXT Program and Chemical Biology Consortium (CBC) The histone demethylases, KDM5A and KDM5B catalyze the demethylation of lysine 4 on histone H3 (H3K4me3/2). They are overexpressed in a variety of cancers and have been implicated in cancer cell growth, metastasis, drug resistance, and tumor growth. KDM5A is amplified and overexpressed in breast and gastric cancer; and is translocated in leukemia. While KDM5B is highly expressed in human mammary tumors and breast cancer cell lines, but not in normal adult breast tissue. Moreover, knockdown of KDM5B leads to upregulation of tumor suppressor genes, including BRCA1. The goal of this project is to employ qHTS to identify selective small molecule inhibitors of KDM5A/B demethylase activity to better understand the role of KDM5 in cancer and to develop novel therapies. We employed an FDH-coupled assay previously reported by Sakurai et al. to monitor in vitro KDM5 demethylase activity. Compounds showing dose response inhibition are re-acquired, validated, and tested for non-specific interference with the formaldehyde dehydrogenase (FDH) counterscreen. True inhibitors are validated using an AlphaLisa secondary screen, which employs an H3K4(me2-1)-specific antibody to monitor demethylation of a biotin-tagged H3K4(me3) peptide substrate. Inhibitors are profiled against KDM4A and KDM6A AlphaLisa counterscreens to determine level of demethylase specificity; and against the TruHits counterscreen to eliminate non-specific inhibitory activity on the AlphaLISA detection method. Selective inhibitors identified from the primary and secondary screening are tested in cells using immunofluorescence to monitor global H3K4 tri-methylation as a measure of KDM5A/B inhibition. Early Translation Branch (ETB) National Center for Advancing Translational Sciences (NCATS), Rockville, MD National Institute of Health (NIH), Bethesda, Maryland [1] Sakurai, M et al. A miniaturized screen for inhibitors of Jumonji histone demethylases. Mol Biosyst. 2010 Feb;6(2):357-64. doi: 10.1039/b912993f. Epub 2009 Oct 8.
Materials: 1536-well Black, solid bottom, medium binding assay plate is purchased from Greiner Bio-one. The enzymes (KDM5B) and substrate (H3K4me3/2) are provided by the principal investigators. The buffer for this assay is composed of 50mM HEPES at pH 7.5 with 0.01% Tween-20. FDH coupled Demethylase qHTS protocol: Three microliter enzyme mix (buffer + 200nM KDM5BDeltaAP final concentration) is dispensed into the assay plate using the BioRAPTR Flying Reagent Dispenser (FRD; […]). Compound (at various final concentration) and control solution is pin transferred to the assay plate using the Kalypsys 1536-pin tool apparatus. The assay plate is incubated for 10 min at room temperature followed by addition of 1uL substrate mix (buffer + 100uM ascorbic acid, 50uM ferrous ammonium sulfate, 12.5uM H3K4Me3, 25uM a-ketoglutarate, 0.25 mM NAD+, 0.25 U/mL formaldehyde dehydrogenase using the FRD yielding a total reaction volume of 4 uL. Initial fluorescence (Read1) is detected using the PerkinElmer ViewLux plate reader equipped with 340 nm excitation and 450 nm emission filters. The final fluorescence (Read2) signal is obtained after 30 min of room temperature incubation. Delta RFU is calculated (Read2 - Read1) and is used to generated dose response curves.
`CCOc1cccc(C(=O)NCC2(N(C)C)CCCCC2)c1` was tested, and the activity change, negative = inhibition was inactive: -8.73%.
`O=C(NCC1(N2CCCCC2)CCCCC1)c1cccc(Br)c1` was tested, and the activity change, negative = inhibition was inactive: -3.02%.
For `O=C(NCC1(N2CCOCC2)CCCCC1)c1cc(=O)c2ccccc2o1`, the activity change, negative = inhibition was inactive: 13.6%.
With `CN(C)CCOC(=O)C(O)(c1ccccc1)C1CCCCC1` (stereo not given) the activity change, negative = inhibition was inactive: 3.96%.
For `CN(C)C1(CNC(=O)c2cccs2)CCCCC1`, the activity change, negative = inhibition was inactive: 8.1%.
`CCCCOc1ccccc1C(=O)NCC1(N(C)C)CCCCC1` was tested, and the activity change, negative = inhibition was inactive: -6.62%.
`CCOc1ccccc1C(=O)NCC1(N(C)C)CCCCC1` was tested, and the activity change, negative = inhibition was inactive: -6.86%.
For `CN(C)C1(CNC(=O)c2ccccc2[N+](=O)[O-])CCCCC1`, the activity change, negative = inhibition was inactive: -22.8%.
`CN(C)C1(CNC(=O)c2ccccc2F)CCCCC1` was tested, and the activity change, negative = inhibition was inactive: -6.47%.
With `CN(C)C1(CNC(=O)c2cccc(Cl)c2)CCCCC1` the activity change, negative = inhibition was inactive: 14.2%.
With `CC(CCN(CCCl)CCCl)c1ccccc1` (stereo not given) the activity change, negative = inhibition was inactive: -9.36%.
In the case of `O=C(CCC1CCCCC1)N1CCN(C/C=C/c2ccccc2)CC1`, the activity change, negative = inhibition is reported as inactive: 6.23%.
With `CC(C)Oc1ccc(C(=O)NCC2(N(C)C)CCCCC2)cc1` the activity change, negative = inhibition was inactive: -5.98% and inactive: -1.75%.
For `COc1ccc(Br)c(C(=O)NCC2(N3CCCCC3)CCCCC2)c1`, the activity change, negative = inhibition was inactive: -7.94%.
In the case of `Cc1cccc(C(=O)NCC2(N(C)C)CCCCC2)c1`, the activity change, negative = inhibition is reported as inactive: -10.9%.
In the case of `COc1cc(C(=O)NCC2(N(C)C)CCCCC2)cc(OC)c1OC`, the activity change, negative = inhibition is reported as inactive: 2.24%.
With `CC(C)COc1ccc(C(=O)NCC2(N(C)C)CCCCC2)cc1` the activity change, negative = inhibition was inactive: -4.92%.
For `COc1cccc(C(=O)NCC2(N3CCOCC3)CCCCC2)c1`, the activity change, negative = inhibition was inactive: -20.5%.
In the case of `COc1ccc(C(=O)NCC2(N(C)C)CCCCC2)cc1Cl`, the activity change, negative = inhibition is reported as inactive: -8.06%.
`COc1cc(C(=O)NCC2(N(C)C)CCCCC2)c([N+](=O)[O-])cc1OC` was tested, and the activity change, negative = inhibition was inactive: -3.29%.
